Test: Dissociation constant (pKa)

Question: Which pKa does the source give for `O=[N+]([O-])c1ccc([N+](=O)[O-])c(O)c1` here?
Answer: The pKa was 4.1.

Source: ChEMBL document CHEMBL1122024, “Quantitative structure-inhibitory activity relationships of phenols and fatty acids for Bacillus subtilis spore germination” (J Med Chem, 1982)
